Measurements as given in patent US11058674B2 (priority 2016, dated 2021).

The chains behind the UniProt entries cited, without tags or fusion partners. Where a name states a change or a piece, a line headed by the entry shows the natural chain unless it says otherwise.
UniProt P41146: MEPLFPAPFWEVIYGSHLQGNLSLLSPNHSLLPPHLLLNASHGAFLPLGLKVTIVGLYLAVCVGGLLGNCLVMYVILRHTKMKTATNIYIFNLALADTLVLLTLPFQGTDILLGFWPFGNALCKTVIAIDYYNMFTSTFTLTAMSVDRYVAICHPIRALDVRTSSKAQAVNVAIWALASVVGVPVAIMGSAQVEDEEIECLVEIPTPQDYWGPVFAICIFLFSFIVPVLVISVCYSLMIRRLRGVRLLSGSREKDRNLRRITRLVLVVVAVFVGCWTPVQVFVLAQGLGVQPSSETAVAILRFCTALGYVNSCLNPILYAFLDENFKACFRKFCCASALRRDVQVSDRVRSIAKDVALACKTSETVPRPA
UniProt P35372, whole entry, looked up: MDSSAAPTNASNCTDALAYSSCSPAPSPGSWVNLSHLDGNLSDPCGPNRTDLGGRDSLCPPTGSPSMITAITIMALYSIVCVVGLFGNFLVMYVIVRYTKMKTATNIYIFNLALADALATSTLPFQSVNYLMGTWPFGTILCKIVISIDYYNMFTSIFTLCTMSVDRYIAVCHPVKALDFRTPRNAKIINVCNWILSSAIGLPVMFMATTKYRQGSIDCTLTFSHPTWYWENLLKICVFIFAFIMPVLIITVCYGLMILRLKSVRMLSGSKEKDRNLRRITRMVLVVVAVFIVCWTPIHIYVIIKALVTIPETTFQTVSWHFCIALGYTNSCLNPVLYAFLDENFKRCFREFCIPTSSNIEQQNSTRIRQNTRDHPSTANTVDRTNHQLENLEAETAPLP

Legend:
NOP receptor = NOP receptor (Homo sapiens, UniProt P41146); assay: Affinity to the NOP receptor
rhesus monkeys [1] = assay: Food acquisition test (Food 1, Food 2) in monkey, central nervous system (CNS) depressant action
[2] = test system: male Long-Evans hooded rats; assay: Stress-induced (footshock) cocaine seeking behavior in rat, reinstatement test; details: Compound A 3 mg/kg p.o., 30 minutes before session
MOP receptor = MOP receptor (Homo sapiens, UniProt P35372); assay: Affinity to the MOP receptor
rhesus monkeys [3] = assay: Cocaine self-administration in monkey

Q: How did the “affinity to the NOP receptor” value (NOP receptor) turn out when `CNC(=O)Cn1c(=O)n(C2CCN([C@@H]3CCCc4c(C)cccc43)CC2)c2ccccc21` was run?
A: high affinity

Q: What about the NOP receptor selectivity (NOP receptor; relative to MOP receptor) of the same compound?
A: high NOP receptor selectivity

Q: What about the “number of food acquisition in food component 1 (Food 1)” value (rhesus monkeys [1]; Compound A 0.56 mg/kg i.m.) of the same compound?
A: reduced

Q: And the “reduction of the number of food acquisition in food component 2 (Food 2)” value (rhesus monkeys [1]; Compound A 0.56 mg/kg i.m.)?
A: not observed

Q: And the “number of food acquisition in food component 1 (Food 1)” value (rhesus monkeys [1]; Compound A 0.1 and 0.32 mg/kg i.m.)?
A: did not affect

Q: And the “cocaine seeking behavior induced by the footshock stress (active lever presses)” value [2]?
A: significantly suppressed

Q: And the “affinity to the MOP receptor” value (MOP receptor)?
A: low affinity

Q: And the “number of rewards in the cocaine self-administration” value (rhesus monkeys [3]; Compound A 0.1, 0.32 and 0.56 mg/kg i.m.)?
A: dose-dependently reduced

Q: And the “number of rewards at the strongest rewarding effects of cocaine” value (rhesus monkeys [3]; cocaine 0.01 mg/kg/inj, Compound A 0.1 or 0.32 mg/kg)?
A: significantly decreased
